Measurements published in ChEMBL document CHEMBL4823262, “Discovery of a Vitamin D Receptor-Silent Vitamin D Derivative That Impairs Sterol Regulatory Element-Binding Protein In Vivo” (J Med Chem, 2021).
Calls of active or inactive are those of the source. The calls are words filed in the database; no cut-off is given here.

Key:
[1] = target: T1, Sterol regulatory element-binding protein cleavage-activating protein (Homo sapiens) (UniProt Q12770); assay: Inhibition of FLAG-tagged SCAP (unknown origin) expressed in CHO-K1 cells assessed as reduction in SCAP protein level at 1 to 5 uM after 24 hrs in presence of proteasome inhibitor MG132 by Western blotting analysis; type: cell-based; details: dose 1-5 µM
T1 sequence (whole entry): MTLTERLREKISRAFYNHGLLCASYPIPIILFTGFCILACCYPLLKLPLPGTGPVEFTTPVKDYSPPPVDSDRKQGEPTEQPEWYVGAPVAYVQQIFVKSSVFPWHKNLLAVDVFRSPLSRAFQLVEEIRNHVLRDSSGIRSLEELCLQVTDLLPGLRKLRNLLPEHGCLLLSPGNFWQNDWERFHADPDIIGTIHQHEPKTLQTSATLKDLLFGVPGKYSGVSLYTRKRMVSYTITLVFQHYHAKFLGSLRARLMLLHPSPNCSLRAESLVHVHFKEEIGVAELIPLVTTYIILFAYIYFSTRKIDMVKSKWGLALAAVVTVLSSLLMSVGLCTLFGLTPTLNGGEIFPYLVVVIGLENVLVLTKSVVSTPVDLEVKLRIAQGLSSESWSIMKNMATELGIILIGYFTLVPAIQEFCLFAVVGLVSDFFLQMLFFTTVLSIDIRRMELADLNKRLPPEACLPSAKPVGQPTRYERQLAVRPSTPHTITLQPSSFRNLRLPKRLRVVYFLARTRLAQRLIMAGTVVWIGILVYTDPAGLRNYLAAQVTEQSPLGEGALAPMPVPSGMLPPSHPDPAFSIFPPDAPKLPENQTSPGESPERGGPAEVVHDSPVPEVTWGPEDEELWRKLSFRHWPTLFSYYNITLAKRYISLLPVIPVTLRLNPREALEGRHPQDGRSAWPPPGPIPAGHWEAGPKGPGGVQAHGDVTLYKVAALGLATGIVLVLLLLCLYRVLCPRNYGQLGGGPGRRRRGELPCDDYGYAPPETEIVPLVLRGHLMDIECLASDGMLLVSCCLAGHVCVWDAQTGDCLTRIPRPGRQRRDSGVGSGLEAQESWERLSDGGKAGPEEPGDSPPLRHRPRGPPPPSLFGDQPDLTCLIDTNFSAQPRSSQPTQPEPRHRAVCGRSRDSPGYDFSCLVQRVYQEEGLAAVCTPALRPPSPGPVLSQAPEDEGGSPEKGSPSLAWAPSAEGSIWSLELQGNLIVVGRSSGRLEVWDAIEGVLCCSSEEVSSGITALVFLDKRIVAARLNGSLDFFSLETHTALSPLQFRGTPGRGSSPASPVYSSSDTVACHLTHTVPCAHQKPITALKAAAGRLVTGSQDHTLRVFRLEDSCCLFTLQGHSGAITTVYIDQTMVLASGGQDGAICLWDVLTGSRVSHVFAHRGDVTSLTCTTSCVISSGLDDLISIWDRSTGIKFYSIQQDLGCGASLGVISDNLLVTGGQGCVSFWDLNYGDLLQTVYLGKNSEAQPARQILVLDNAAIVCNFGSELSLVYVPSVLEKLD

[2] = target: T1, Sterol regulatory element-binding protein cleavage-activating protein (Homo sapiens); assay: Inhibition of FLAG-tagged SCAP (unknown origin) expressed in CHO-K1 cells assessed as reduction in SCAP protein level at 1 uM after 24 hrs by Western blotting analysis; type: cell-based

inhibition [1]: inactive | inhibition [2]: inactive
Structure (SMILES): C[C@H](CCC(F)(F)C(C)(C)O)[C@H]1CC[C@H]2/C(=C/Cn3nnnc3-c3ccccc3)CCC[C@]12C
